Assay type in all cases: biochemical
One test deals with PI3K β (Homo sapiens (Human), UniProt P42338). The experiment in a line: PI 3-Kinase (human) HTRF assay, p110β/p85α. On the technique in general: TR-FRET usually uses a lanthanide donor and a delayed reading to cut background.
In a further test the target is PI3K δ (Homo sapiens (Human), UniProt O00329). The test is described as follows: PI 3-Kinase (human) HTRF assay, p110δ/p85α.
The next test concerns the target PI3K γ (Homo sapiens (Human), UniProt P48736). The experiment in a line: PI 3-Kinase (human) HTRF assay, p110γ.
The target of another test is mTORC (Homo sapiens (Human), UniProt P42345). The test is described as follows: mTOR inhibition assay (radiometric or LanthaScreen TR-FRET).
The target of a further test is PI3K α (Homo sapiens (Human), UniProt P42336). The experiment in a line: PI 3-Kinase (human) HTRF assay, p110α/p85α.

Protein sequences, listed by entry. Tags and fused reporters are not part of them. Lines headed by an entry give the natural chain unless they say otherwise; changes in a name come on top.
UniProt P42338: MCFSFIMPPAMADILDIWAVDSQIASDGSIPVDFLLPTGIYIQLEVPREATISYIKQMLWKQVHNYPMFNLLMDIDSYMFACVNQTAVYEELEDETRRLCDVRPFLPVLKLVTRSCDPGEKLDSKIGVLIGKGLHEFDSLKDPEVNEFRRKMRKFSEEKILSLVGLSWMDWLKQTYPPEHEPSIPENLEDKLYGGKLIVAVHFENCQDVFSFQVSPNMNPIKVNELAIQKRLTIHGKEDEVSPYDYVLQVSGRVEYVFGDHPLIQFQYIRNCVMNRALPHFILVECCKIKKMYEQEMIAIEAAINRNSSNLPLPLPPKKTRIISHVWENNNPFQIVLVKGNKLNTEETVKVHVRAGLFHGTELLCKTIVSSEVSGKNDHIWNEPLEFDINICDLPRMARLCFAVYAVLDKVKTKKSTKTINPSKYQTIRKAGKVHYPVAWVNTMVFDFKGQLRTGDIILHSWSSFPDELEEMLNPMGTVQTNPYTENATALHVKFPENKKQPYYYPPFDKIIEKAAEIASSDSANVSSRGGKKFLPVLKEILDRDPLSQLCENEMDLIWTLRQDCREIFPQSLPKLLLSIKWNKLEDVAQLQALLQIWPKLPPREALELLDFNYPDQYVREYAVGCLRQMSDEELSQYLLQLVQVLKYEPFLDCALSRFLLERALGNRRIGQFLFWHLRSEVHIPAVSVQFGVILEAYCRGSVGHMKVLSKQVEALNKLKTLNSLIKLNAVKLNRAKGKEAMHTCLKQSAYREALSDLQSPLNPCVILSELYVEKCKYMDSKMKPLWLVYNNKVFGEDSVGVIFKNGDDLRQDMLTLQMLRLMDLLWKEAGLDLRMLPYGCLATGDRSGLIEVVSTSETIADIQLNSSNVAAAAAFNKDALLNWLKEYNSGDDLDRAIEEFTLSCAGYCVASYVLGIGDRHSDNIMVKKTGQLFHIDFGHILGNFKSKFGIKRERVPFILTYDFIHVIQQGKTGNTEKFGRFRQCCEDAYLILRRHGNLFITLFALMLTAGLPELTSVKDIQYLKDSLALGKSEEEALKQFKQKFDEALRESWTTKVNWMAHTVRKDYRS
UniProt O00329: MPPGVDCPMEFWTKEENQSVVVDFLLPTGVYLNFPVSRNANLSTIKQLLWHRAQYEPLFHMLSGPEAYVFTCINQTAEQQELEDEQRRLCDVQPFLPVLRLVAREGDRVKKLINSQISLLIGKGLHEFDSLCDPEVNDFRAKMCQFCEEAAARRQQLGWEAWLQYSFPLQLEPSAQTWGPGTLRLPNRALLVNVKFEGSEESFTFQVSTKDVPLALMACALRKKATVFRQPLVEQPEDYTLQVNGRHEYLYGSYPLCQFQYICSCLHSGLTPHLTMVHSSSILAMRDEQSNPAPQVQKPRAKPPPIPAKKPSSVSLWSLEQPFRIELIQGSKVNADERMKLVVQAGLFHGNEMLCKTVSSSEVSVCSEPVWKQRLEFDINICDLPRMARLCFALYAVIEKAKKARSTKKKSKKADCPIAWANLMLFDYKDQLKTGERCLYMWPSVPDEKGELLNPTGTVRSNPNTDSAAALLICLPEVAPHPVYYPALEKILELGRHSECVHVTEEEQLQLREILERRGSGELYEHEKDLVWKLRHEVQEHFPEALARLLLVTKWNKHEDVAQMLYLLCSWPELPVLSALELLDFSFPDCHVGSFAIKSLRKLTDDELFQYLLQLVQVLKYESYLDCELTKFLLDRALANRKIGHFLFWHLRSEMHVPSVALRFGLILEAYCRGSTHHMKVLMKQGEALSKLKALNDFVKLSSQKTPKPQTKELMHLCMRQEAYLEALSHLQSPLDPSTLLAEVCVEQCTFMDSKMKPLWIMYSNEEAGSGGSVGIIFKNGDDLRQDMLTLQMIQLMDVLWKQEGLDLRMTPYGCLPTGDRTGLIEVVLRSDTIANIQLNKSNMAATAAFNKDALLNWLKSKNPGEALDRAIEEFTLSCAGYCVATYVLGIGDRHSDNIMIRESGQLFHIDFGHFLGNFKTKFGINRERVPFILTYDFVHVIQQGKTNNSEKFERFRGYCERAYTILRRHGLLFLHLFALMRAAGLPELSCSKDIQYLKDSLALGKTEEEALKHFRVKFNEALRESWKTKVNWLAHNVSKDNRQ
UniProt P48736: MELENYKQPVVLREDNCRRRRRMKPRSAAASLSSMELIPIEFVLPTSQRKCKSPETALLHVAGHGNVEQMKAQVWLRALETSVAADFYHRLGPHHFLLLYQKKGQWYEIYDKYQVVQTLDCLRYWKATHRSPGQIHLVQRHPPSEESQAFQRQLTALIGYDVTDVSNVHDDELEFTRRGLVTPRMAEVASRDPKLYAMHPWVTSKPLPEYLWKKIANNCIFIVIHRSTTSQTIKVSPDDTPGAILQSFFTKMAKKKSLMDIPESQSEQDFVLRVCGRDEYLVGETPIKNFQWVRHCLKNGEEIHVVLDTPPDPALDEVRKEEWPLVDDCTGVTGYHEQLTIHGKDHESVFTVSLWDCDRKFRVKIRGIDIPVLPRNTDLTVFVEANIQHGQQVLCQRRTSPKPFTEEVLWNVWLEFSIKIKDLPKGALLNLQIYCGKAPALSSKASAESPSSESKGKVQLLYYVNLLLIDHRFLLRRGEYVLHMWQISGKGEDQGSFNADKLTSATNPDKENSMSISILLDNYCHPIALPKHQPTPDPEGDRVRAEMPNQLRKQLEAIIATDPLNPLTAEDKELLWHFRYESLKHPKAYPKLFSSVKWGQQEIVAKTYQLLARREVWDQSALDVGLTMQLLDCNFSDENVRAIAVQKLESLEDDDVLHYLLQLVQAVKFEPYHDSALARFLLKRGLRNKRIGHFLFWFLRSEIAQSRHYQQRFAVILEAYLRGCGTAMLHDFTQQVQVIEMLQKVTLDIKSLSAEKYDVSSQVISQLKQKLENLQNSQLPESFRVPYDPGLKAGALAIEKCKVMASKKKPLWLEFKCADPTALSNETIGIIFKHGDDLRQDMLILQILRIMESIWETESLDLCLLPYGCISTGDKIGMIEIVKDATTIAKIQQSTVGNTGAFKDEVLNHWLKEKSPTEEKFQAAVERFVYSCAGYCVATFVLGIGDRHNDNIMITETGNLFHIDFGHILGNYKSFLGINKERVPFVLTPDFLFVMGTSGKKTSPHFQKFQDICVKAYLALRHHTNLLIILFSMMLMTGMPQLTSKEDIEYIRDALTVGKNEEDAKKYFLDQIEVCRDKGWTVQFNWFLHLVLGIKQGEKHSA
UniProt P42336, whole entry: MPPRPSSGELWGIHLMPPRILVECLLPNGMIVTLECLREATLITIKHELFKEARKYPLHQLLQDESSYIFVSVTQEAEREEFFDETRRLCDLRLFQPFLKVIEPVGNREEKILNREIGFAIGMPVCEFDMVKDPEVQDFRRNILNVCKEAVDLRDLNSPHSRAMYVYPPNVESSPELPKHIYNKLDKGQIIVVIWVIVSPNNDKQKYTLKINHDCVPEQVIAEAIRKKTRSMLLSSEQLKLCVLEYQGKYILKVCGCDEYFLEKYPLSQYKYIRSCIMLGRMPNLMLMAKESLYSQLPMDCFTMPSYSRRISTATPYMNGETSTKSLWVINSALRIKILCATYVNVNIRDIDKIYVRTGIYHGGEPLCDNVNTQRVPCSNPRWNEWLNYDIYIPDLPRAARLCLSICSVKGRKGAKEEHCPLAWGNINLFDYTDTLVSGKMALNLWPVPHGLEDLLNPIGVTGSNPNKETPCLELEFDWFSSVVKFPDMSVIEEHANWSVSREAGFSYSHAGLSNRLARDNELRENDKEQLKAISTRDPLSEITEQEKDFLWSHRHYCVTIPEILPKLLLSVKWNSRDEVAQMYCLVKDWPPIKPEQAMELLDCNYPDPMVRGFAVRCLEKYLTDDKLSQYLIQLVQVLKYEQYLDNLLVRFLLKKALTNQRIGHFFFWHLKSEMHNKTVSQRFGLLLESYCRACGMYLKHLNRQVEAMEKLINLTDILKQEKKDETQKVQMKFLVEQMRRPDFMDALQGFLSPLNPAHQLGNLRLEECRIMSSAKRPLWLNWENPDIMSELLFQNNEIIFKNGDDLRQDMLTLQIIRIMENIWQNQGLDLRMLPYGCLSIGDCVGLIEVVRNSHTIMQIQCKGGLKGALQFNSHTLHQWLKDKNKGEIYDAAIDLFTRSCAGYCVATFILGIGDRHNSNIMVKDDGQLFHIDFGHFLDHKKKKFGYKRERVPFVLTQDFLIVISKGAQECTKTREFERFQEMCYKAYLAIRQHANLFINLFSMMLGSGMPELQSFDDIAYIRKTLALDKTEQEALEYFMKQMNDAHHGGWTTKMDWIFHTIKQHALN

Experimental findings from patent US9682141B2, “Combination of kinase inhibitors and uses thereof” (INTELLIKINE LLC, priority 2011, dated 2017) are described below.

Each structure is given as a SMILES string.

With `Nc1nc2cc(-c3ccc4ncnc(N5CCOCC5)c4c3)ccc2o1` [Compound 22], the IC50 – broadly, the concentration at which inhibition is half-maximal – against PI3K β was less than 100 nM; at PI3K δ, less than 100 nM; on PI3K γ, less than 100 nM; against mTORC, less than 1000 nM; on PI3K α, less than 100 nM.
